# US9757399B2, “Butyrylcholinesterase inhibitors” (priority 2006, dated 2017)
# Sequences of proteins named here, by UniProt entry; tags and fusion partners are left off.
# UniProt P81908, whole entry: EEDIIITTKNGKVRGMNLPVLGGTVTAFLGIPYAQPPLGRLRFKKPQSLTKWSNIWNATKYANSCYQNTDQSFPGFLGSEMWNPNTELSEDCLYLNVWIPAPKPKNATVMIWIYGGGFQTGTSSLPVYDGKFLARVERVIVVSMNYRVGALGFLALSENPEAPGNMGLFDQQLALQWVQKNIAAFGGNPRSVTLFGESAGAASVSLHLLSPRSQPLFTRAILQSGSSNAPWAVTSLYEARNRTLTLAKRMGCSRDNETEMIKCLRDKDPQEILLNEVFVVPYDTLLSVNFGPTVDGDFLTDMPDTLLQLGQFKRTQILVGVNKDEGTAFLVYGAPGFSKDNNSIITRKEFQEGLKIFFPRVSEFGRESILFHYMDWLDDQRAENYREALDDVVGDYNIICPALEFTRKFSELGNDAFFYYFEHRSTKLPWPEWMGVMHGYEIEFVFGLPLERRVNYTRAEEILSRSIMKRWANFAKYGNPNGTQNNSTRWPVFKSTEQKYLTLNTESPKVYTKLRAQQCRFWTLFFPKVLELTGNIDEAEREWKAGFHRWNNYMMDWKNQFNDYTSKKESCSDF
# Target: T1, butyrylcholinesterase (Equus caballus, UniProt P81908)
# T1 construct: butyrylcholinesterase (from horse serum); purchased Sigma; host or cells: horse serum (natural source)
# Assay: biochemical
# Parameters: species or system horse
# Procedure: Cholinesterase activity measurements were performed essentially according to the method of Ellman (Biochemical Pharmacology 7:88-90, 1961). The composition of the assay mixture was 0.1 M sodium phosphate, pH 7.5, 0.033 M DTNB, 0.001 M MgCl2, and 100 μg/mL of BSA containing appropriate amounts of substrate and inhibitor. Each assay was initiated by the addition of substrate and the activity quantified by measuring the formation of the thionitrobenzoate anion at 412 nm at 37° C. Methanol used to solubilize the dialkyl phenyl phosphates [1% (v/v) final concentration] had no inhibitory effect on either enzyme.
# . The results were obtained by pre-incubating the enzyme with the compound (final concentration 10^−7M) for various periods of time and measuring the remaining enzyme activity. The results are shown as the change in absorbance at 412 nm/minute. In order to simplify the results from all the compounds, the enzyme activities were normalized to 2-chlorophenyl-di-n-butyl phosphate which was set as 1.0. Since two different preparations of enzyme were used, the normalization procedure would adjust for any differences in the amount of enzyme. […]. […]
# Table 4: Rates of inactivation of butyrylcholinesterase by exemplary compounds: Change in Absorbance at 412 nm/Minute. […]
structure (smiles),measurement,value
CCCCOP(=O)(OCCCC)Oc1ccccc1C,Ki,2100 nM
